This note sets out measurements from PubChem BioAssay AID623877 (Johns Hopkins Ion Channel Center, 2012).

By UniProt entry, the sequences of proteins in these tests, tags left out.
UniProt Q8BHY3, whole entry: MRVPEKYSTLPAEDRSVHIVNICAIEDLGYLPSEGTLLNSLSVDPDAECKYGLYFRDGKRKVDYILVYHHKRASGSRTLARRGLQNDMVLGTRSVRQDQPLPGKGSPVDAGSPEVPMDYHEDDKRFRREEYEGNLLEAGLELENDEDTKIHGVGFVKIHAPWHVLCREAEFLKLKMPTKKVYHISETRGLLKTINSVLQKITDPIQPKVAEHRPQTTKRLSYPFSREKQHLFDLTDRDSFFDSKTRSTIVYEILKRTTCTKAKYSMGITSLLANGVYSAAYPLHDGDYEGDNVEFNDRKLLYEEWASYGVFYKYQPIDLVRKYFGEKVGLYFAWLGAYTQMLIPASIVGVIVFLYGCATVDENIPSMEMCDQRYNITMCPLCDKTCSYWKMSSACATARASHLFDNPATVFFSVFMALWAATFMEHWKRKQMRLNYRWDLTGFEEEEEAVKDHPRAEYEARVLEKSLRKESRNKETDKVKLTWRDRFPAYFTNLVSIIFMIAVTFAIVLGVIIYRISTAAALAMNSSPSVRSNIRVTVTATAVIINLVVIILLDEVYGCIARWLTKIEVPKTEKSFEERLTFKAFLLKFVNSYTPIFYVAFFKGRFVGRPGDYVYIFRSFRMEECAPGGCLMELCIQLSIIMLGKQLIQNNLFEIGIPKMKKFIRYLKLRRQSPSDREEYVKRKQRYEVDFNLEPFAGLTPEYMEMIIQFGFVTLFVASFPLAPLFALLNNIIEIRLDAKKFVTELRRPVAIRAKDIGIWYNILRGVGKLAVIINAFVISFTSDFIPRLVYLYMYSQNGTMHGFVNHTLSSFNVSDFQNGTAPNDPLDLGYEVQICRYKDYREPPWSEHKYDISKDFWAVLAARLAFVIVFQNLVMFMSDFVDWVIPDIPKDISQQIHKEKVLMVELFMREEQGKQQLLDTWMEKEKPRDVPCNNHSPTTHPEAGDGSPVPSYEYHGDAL

The list shows a part of the results, in another mix than the full data. Activity calls are given as the source filed them.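 The calls were made as follows: active = fluorescence-ratio B-score plate-corrected deviation score at least 3 library SD below zero, with starting fluorescence score within 5 deviations; inactive = the rest.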

The target of this test is Anoctamin-1 (Mus musculus) (UniProt Q8BHY3). The test is described as follows: TMEM16A chloride channel activators or potentiators, primary screen, cell-based, HTS (AID 623877). Particulars: HEK293 TMEM16A/YFP-H148Q/I152L, iodide quench fluorescence; at 10 µM.
As to `CCC(=O)N(c1ccccc1)C1(COC)CCN(CCn2nnn(CC)c2=O)CC1`, the outcome was inactive.
On to `CCC(=O)N(c1ccccc1)C1(COC)CCN(CCc2cccs2)CC1`, for which the outcome was inactive.
